Reference: ChEMBL document CHEMBL1250436, “Evaluation of N-substitution in 6,7-benzomorphan compounds” (Bioorg Med Chem, 2010)

Chains of the proteins cited; added tags and fusions are not shown.
UniProt P33535, whole entry, looked up: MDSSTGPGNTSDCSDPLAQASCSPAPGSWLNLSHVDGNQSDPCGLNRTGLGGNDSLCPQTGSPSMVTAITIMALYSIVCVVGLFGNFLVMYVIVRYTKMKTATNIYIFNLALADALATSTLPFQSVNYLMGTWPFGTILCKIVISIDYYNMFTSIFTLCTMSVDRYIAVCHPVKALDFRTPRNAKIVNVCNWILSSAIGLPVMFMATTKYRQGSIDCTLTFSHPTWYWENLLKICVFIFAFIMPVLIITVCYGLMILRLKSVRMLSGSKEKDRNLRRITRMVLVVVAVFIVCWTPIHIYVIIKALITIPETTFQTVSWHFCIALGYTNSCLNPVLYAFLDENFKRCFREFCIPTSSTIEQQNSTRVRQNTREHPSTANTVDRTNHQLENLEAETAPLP
UniProt P33533, whole entry, looked up: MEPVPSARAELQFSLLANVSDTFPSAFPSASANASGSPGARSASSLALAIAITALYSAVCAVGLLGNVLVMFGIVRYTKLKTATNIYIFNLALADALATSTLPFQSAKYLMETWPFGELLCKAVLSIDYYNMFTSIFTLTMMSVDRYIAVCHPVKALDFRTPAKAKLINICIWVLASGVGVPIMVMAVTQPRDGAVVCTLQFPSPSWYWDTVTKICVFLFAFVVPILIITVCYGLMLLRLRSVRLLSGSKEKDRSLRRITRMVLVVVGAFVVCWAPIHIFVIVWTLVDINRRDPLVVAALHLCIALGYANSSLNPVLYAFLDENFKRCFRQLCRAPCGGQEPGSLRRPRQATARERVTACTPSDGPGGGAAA

Tests used:
[1] = biological target: Mu-type opioid receptor (Rattus norvegicus, UniProt P33535)
[2] = biological target: Delta-type opioid receptor (Rattus norvegicus, UniProt P33533); test: Displacement of [3H]DPDPE from Sprague-Dawley rat delta opioid receptor by liquid scintillation counting

For `CN(C(=O)Cc1ccc(Cl)c(Cl)c1)C1CCCCC1N1CCCC1` (configuration not stated), the Ki [1] was 1750 nM and the Ki [2] was > 5000 nM.
